According to patent US6407227B1, “Process for the crystallization of lactitol” (Xyrofin Oy, priority 1997, dated 2002):

Assay: Linear curve fittings of the solubility points and stability areas from intersections of solubility curves
From the text: The solubility data of Table 2 was combined with some earlier solubility measurement data. The curve fittings of the solubility points were made as linear fittings, when % by weight is used as a concentration unit. […] The fittings were made with the aid of the spread sheet program Excel 5.0^R. The solubility equations of the different hydrate forms are shown in Equations (I) to (IV): [formula]
The fitting of the trihydrate cannot be considered absolutely exact because only three measurement points were used for fitting: one exact point, one uncertain point and one calculatory point.
The solubility points and the curve fittings are shown in a graph in FIG. 1. […] From the intersections of solubility curves it is possible to conclude the stability areas of the different lactitol forms.

anhydrous lactitol
stability area (temperature) (in water, from the intersections of solubility curves): > 69 °C
solubility line s as function of temperature t (linear fitting) (t in ° C., s = weight of lactitol/(weight of lactitol+weight of water)×100%, between 100 and 0 ° C.): 59.6+0.3003t
